AlphaSeq binding of Ab-14 light chain variants to a spike HR2 peptide

Target: peptide PDVDLGDISGINAS, taken from heptad repeat 2 (HR2) of SARS-CoV-2 spike.

The variants keep the heavy chain, the linker and the frameworks of Ab-14 (scFv order VH, the linker GGGGSGGGGSGGGGS, VL).
VH: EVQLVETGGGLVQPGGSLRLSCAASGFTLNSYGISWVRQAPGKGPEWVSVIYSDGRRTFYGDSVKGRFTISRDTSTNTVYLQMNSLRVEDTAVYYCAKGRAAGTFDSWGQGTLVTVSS
VL: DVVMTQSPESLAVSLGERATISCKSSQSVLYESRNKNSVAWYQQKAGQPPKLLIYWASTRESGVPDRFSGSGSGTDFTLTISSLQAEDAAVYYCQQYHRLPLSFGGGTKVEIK

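Phage display of a naive human antibody library on the peptide gave the parent. The library (AAYL50) carries one to three amino acid substitutions per variant, with no insertions or deletions. In AlphaSeq, yeast of one mating type display the scFv and yeast of the other type display the target. Mating (16 h, 30 °C) was followed by selection of diploids and sequencing of their barcodes. Read counts were normalised to the haploid input and turned into Kd by a linear fit to BCL2-family pairs of known affinity, for each replicate. The assay was run in three technical replicates.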

Variants are written as CDR1, CDR2 and CDR3 of the light chain (limits as in the source). Parent: KSSQSVLYESRNKNSVA, WASTRES, QQYHRLPLS.
Values are log10 of the apparent Kd in nM; lower means stronger binding.
An entry "nd" has no value in the source: the pair was not observed among the diploids in that replicate. This suggests poor binding but is not conclusive.

| CDR-L1 | CDR-L2 | CDR-L3 | log10 Kd (nM) by replicate | signal with controls |
|---|---|---|---|---|
| KSSMSVLYSSRNKNSVA | WASTRES | QQYHRLPYS | nd 2.89 nd | 2 of 9 (2.88) |
| KSSQSVLYESRNHNMVA | WASTREC | QQYHRLPLS | 4.10 3.19 3.69 | 1 of 9 (4.24) |
| KSSQAQLYESTNKNSVA | WASTRES | QQYHRLPLS | 0.28 0.53 0.44 | 1 of 9 (5.74) |
| KSSQSVLKETRNKNSVA | WASTREW | QQYHRLPLS | nd nd 5.82 | 3 of 9 (3.94) |
| KSSQSVLYEYRNKNSVA | WASCREG | QQYHRLPLS | nd nd nd | 1 of 9 (2.09) |
| KSSQSNLYESRNKNSVA | WASTRGS | QQYHRLPLS | 1.18 1.45 1.51 | 0 of 9 |
| KSSQSVLAESRNKNSVA | WASTRES | QQDARLPLS | nd nd nd | 4 of 9 (4.53) |
| KSSQSVCYESRNKNSCA | WASTPES | QQYHRLPLS | nd nd nd | 0 of 9 |
| KSSQSNLYESRNKNRVA | WASTRES | QQYHRLPLY | 4.37 2.39 3.57 | 0 of 9 |
| KSSQSVLYESRNKNSVA | YASGRES | QQYIRLPLS | 3.10 2.81 3.64 | 2 of 9 (3.62) |
| KSSQSVLYKSRNKNSVA | WASTRES | QCYFRLPLS | 3.00 2.83 3.27 | 2 of 9 (3.89) |
| KSSQTVVYESRNKNSVS | WASTRES | QQYHRLPLS | nd nd 4.60 | 1 of 9 (3.56) |
| KSSQSVLYESRNNRIVA | WASTRES | QQYHRLPLS | nd 2.36 nd | 0 of 9 |
| KSSQSVLYESRNKNAVA | WASTRES | QQYHGLPLS | 0.57 0.79 0.69 | 4 of 9 (5.07) |
| KSSQSVLYESRNVNSVA | TASTRES | QQYHRLPLV | nd nd nd | 2 of 9 (3.79) |
| KSSWMVLYCSRNKNSVA | WASTRES | QQYHRLPLS | nd nd nd | 4 of 9 (4.32) |
| KSSQSVLYEMTNKNSVA | WASTRES | QQYHRLPLH | 2.06 2.00 2.48 | 5 of 9 (4.53) |
| KSSQSVLCESRNKNSVA | WASTRES | QQYHRLPLG | 2.39 1.82 2.88 | 2 of 9 (4.30) |
| KSSQSVLYESRNKMSVA | WASTRES | QQYYRLPLS | 1.75 1.71 1.72 | 5 of 9 (5.00) |
| KSSQSVLYESRNKNSVA | WWSTYES | QQYHRLPLS | nd 3.92 nd | 3 of 9 (4.18) |
| KDSQSVLYESRNKNSVA | PASTRES | QQYHRLPLL | nd nd nd | 1 of 9 (3.54) |
| KSSQSVLYESRHKNSVA | WASTREM | QQVHRLPLS | nd nd nd | 0 of 9 |
| KSSQSVLYESRNKNRVA | WFSTRES | RQYHRLPLS | nd nd nd | 1 of 9 (4.34) |
| KSSQTVLKESRNKNSVA | WASTRES | QQYHRLGLS | nd nd nd | 0 of 9 |
| KSSQSVLYEWRNKNSVA | WASTRES | QQYHRGPLS | nd 3.43 nd | 3 of 9 (3.98) |
| KSSQSVLYESRNKNSVA | WAYTRAS | QQYHRLPLS | 1.84 1.62 1.74 | 0 of 9 |
| KSSQSVLYESRNKNPVA | WASTREK | QQYHRYPLS | 1.47 1.53 1.79 | 0 of 9 |
| KSSQSCLEESRNKNSVE | WASTRES | QQYHRLPLS | nd 3.59 3.97 | 1 of 9 (3.11) |
| KSSQSVLYESRNKNSVA | WDSTRES | QVYHRLCLS | nd nd nd | 3 of 9 (3.96) |
| KSSQSVLYESRIKNIWA | WASTRES | QQYHRLPLS | nd nd nd | 0 of 9 |
| KSSQSVLYESRNKNSVA | WASTREH | QKYHRHPLS | nd nd nd | 0 of 9 |
| KESQSVLYESCNKNSRA | WASTRES | QQYHRLPLS | nd nd nd | 1 of 9 (4.28) |
| KSTQSILYESRNKASVA | WASTRES | QQYHRLPLS | 0.99 1.40 1.14 | 1 of 9 (3.64) |
| KFDQSVLYESRNKDSVA | WASTRES | QQYHRLPLS | -0.11 0.15 -0.03 | 1 of 9 (3.56) |
| KSSQSVLYESNYKNSVA | WASTRES | QQYKRLPLS | nd 4.22 4.24 | 3 of 9 (3.36) |
| KSSQSVLYESRNKNSVA | WASTEES | QFYHRLPFS | nd nd nd | 1 of 9 (3.35) |
| KSSQSVLYCSRNKNYVA | WASTRES | QQYHRSPLS | nd nd 2.99 | 0 of 9 |
| KSSQSVLYELRMKNSVA | WASTRES | NQYHRLPLS | nd nd nd | 0 of 9 |
| KSCQSVLYESRNKNSVA | WASTRDM | QQYHRLPLS | nd nd nd | 0 of 9 |
| KYSQSVLYESRNKNSVA | SASTRWS | QQYHRLPLS | 1.85 2.00 2.03 | 1 of 9 (5.38) |
| KSSQSVVYESRTKNSVA | WASTREL | QQYHRLPLS | nd 2.38 2.60 | 2 of 9 (3.93) |
| KSSQSVLYENRNRNSVA | WQSTRES | QQYHRLPLS | 1.58 1.41 1.72 | 0 of 9 |
| KSSQSVLYESRNKVSVN | WASTRES | QQFHRLPLS | 4.95 nd nd | 5 of 9 (4.01) |
| KSMQSVLYESRNKNSVA | WASTRES | QQKQRLPLS | nd 4.33 nd | 2 of 9 (3.68) |
| KSSQSVLYESRLKNSVA | WASTRES | QQRHRLPLY | 4.19 nd nd | 0 of 9 |
| KSSQSVLYESRNDNSVA | WASGRES | QQYHRLPLS | 4.95 nd 5.29 | 2 of 9 (3.45) |
| KSSQSVLYESRNKNSRA | WTSTRES | QQYHRLGLS | nd nd nd | 0 of 9 |
| KSSQSVLYESRNKNSVA | WFSPRES | QQYHRLNLS | 3.87 nd nd | 2 of 9 (5.17) |
| WSSQSVLYESRNKFSVA | WASTRES | QMYHRLPLS | nd nd nd | 3 of 9 (4.28) |

Excerpt, the final 3 entries:

| CDR-L1 | CDR-L2 | CDR-L3 | log10 Kd (nM) by replicate | signal with controls |
|---|---|---|---|---|
| KSSQSVLYESRNKNSRA | WTSTRES | QQYHRLGLS | nd nd nd | 0 of 9 |
| KSSQSVLYESRNKNSVA | WFSPRES | QQYHRLNLS | 3.87 nd nd | 2 of 9 (5.17) |
| WSSQSVLYESRNKFSVA | WASTRES | QMYHRLPLS | nd nd nd | 3 of 9 (4.28) |

Parent in this assay: reference entry 0.65, copy in this library 1.68.
As a blank, each scFv also met three strains without target: over library AAYL50, 18% of these pairings were detected, typically at 4.19 and seldom below 2.99. For each scFv, signals with the empty controls are counted beside the result, with their mean in brackets.

The measurements come from Engelhart et al. 2022 (doi:10.1038/s41597-022-01779-4) through the FLAb antibody collection.